By UniProt entry, the sequences of proteins in these tests, tags left out. Where a name states a change or a piece, a line headed by the entry shows the natural chain unless it says otherwise.
UniProt P35370: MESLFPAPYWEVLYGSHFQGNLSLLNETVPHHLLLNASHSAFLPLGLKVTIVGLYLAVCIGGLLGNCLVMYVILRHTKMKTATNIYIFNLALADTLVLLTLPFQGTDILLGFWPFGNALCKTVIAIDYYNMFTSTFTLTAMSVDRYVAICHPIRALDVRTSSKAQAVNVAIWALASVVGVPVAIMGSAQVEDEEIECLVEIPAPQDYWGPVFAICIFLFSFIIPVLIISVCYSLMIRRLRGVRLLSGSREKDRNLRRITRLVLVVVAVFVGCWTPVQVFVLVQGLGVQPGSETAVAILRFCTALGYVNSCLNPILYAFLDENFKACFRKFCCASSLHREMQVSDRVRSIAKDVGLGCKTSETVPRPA

In patent US5866346A (priority 1997, dated 1999):

Biological target: XOR1 (opioid receptor-like orphan receptor) (Rattus norvegicus, UniProt P35370)
Conditions: for EC50: read-out: EC50 of XOR1-mediated activation of the K+ channel (KGA)

**Q.** CC[C@H](C)[C@H](NC(=O)[C@H](CCCNC(=N)N)NC(=O)[C@H](CCCNC(=N)N)NC(=O)[C@H](CC(C)C)NC(=O)[C@H](Cc1ccccc1)NC(=O)CNC(=O)CNC(=O)[C@@H](N)Cc1ccc(O)cc1)C(=O)N[C@@H](CCCNC(=N)N)C(=O)N1CCC[C@H]1C(=O)N[C@@H](CCCCN)C(=O)N[C@@H](CC(C)C)C(=O)N[C@@H](CCCCN)C(=O)N[C@@H](Cc1c[nH]c2ccccc12)C(=O)N[C@@H](CC(=O)O)C(=O)N[C@@H](CC(N)=O)C(=O)N[C@@H](CCC(N)=O)C(=O)O [dyn A, dynorphin A] was tested. Which “membrane currents evoked by endogenous opioid ligands (activation of XOR1)” value did it give?
**A.** Its value is “most potent ones”.

**Q.** And the EC50?
**A.** Its EC50 is 45 ± 6 nM.

**Q.** For CC[C@H](C)[C@H](NC(=O)[C@H](CCCNC(=N)N)NC(=O)[C@H](CCCNC(=N)N)NC(=O)[C@H](CC(C)C)NC(=O)[C@H](Cc1ccccc1)NC(=O)CNC(=O)CNC(=O)[C@@H](N)Cc1ccc(O)cc1)C(=O)N[C@@H](CCCNC(=N)N)C(=O)N1CCC[C@H]1C(=O)N[C@@H](CCCCN)C(=O)N[C@@H](CC(C)C)C(=O)N[C@@H](CCCCN)C(=O)O [dyn A-(1-13), dynorphin A (1-13)], which “membrane currents evoked by endogenous opioid ligands (activation of XOR1)” value is on record?
**A.** The value was “most potent ones”.

**Q.** And the EC50?
**A.** Its EC50 is 37 ± 9 nM.
